The values below come from patent US20050131028A1, “Methods and compositions for the extended duration treatment of pain, inflammation and inflammation-related disorders” (Pharmacia Corporation, priority 2003, published 2005).

Chains of the proteins cited; added tags and fusions are not shown. Residues count along the entry.
UniProt P23219, 24-599: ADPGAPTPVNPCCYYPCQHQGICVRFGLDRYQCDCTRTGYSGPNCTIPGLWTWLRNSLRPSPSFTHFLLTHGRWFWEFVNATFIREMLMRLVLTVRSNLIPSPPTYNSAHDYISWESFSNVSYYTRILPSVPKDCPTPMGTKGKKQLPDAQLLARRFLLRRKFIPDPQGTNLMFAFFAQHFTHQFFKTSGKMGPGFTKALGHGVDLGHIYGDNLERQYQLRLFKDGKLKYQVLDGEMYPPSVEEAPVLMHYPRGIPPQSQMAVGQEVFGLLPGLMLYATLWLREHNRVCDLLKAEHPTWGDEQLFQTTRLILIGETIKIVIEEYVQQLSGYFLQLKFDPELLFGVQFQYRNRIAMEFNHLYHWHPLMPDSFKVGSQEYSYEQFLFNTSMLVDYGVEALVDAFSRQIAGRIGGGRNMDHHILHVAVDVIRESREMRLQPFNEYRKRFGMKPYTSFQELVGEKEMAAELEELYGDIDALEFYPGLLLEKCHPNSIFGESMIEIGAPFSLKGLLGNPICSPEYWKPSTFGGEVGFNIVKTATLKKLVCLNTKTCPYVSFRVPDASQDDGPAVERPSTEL

“And” between values parts separate entries of the source, which are not always exact repeats. Equal entries are not always repeated.

Data set [1] in a line: in vivo. Particulars: rat, po, 2 mg/kg.
A short description of data set [2]: in vivo. The following applies: beagle, dog, po, 2 mg/kg.
Data set [3] is described as follows: in vivo. Particulars: beagle, dog, po, 4 mg/kg.
A further data set concerns the target hCOX-1 (Homo sapiens, UniProt P23219). Put plainly: hCOX-1 enzyme inhibition (IC50). The following applies: hCOX-1 IC50, repeated experimental results listed separately.

`NS(=O)(=O)c1ccc(-n2nc(C(F)(F)F)cc2-c2ccccc2)cc1`: the figures for the half-life in the data set “in vivo [1]”, in the data set “in vivo [2]” and in “in vivo [3]” were 7.2 h, 24 h and 6 to 9 h, respectively.
Consider `COc1c(Cl)cc(-c2cc(C(F)(F)F)nn2-c2ccc(S(N)(=O)=O)cc2)cc1Cl` [4-[5-(3,5-dichloro-4-methoxyphenyl)-3-(trifluoromethyl)-1H-pyrazol-1-yl]benzenesulfonamide], for which the IC50 – broadly, the concentration at which inhibition is half-maximal – against hCOX-1 was 300 µM and > 500 µM.
